# Source: patent US10695406B2, “Modulation of cellular stress using a B-cell oxidative and/or endoplasmic reticulum stress inhibitor and a targeting agent” (THE UNIVERSITY OF QUEENSLAND, priority 2014, dated 2020)
# Test system: MIN6N8 murine β-cells
# Assay: ER stress (ERAI reporter of Xbp1-splicing / Xbp1 splicing) in MIN6N8 β-cells
# Type: cell-based
# Details: 50 ng/mL cytokines, 24 hour
# Method: MIN6N8 cells are maintained in line with standard protocols. Cells are transfected with either the ERAI reporter plasmid (F-XBP1ΔDBD-Venus), or the ATF6-GFP plasmid (ADGENE), using LIPFECTAMINE 2000 according to the manufacturer's instructions.
# On induction of ER stress, splicing of […] mRNA by IRE1a results in the translation of Venus, but not an active form of XBP1. Fluorescence was measured (excitation: 485 nm; emission: 520 nm) using the POLARstar Omega plate reader and cells were treated 48 h after transfection. The results are normalized with Gapdh expression as fold of vehicle-treated control (Con) cells.
# Activation of ATF6 was assessed as follows: the area in pixels per square millimeter co-stained ATF6 and DAPI (blue and green), and total ATF6 staining (green) was determined in 5 fields of view for each section (n=6 for each condition) using IMAGEJ software version 1.45s. Data are presented as the percentage of ATF6 and DAPI co-fluorescence to the total ATF6 fluorescence. Phosphorylation of Ser-51 of eiF2 α was determined by an AlphaScreen assay as per the manufacturer's instructions (PERKIN-ELMER). […]
# MIN6N8 cells were exposed to a panel of cytokines to determine the effect of each cytokine on ER stress. ER stress was measured using the above-described method. […]
molecule,measurement,value
"IFN-β: ER stress-inducing cytokine (protein, UniProt P01574 22-187, looked up) Interferon beta: MSYNLLGFLQRSSNFQCQKLLWQLNGRLEYCLKDRMNFDIPEEIKQLQQFQKEDAALTIYEMLQNIFAIFRQDSSSTGWNETIVENLLANVYHQINHLKTVLEEKLEKEDFTRGKLMSSLHLKRYYGRILHYLKAKEYSHCAWTIVRVEILRNFYFINRLTGYLRN",induction of ER stress (ERAI reporter of Xbp1-splicing),lower stress response
